Only some compounds are listed: those with a hit (about 16% of all), similar ones and a draw of the others.
TDP1 inh = inhibitors of human tyrosyl-DNA phosphodiesterase TDP1; Q9NUW8; recombinant TDP1, AlphaScreen DNA substrate cleavage; AID 485290; 350,000 compounds, 0.28% hits; Potency, µM (titrated, usually from 130 µM), without a hit: at the top dose activity change, negative = inhibition, actives largely listed as inhibitors; also: potency is read from the fitted curve at half-maximal effect; % is scaled to controls: 0 for no effect and ±100 for the full control effect; nearly all actives have a fitted effect of over 40% in size
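Recombinant E. coli-expressed Tdp1 (1 nM) preincubated with compound 15 min at RT, then 5'-biotin/3'-phosphotyrosine-FITC DNA substrate (15 nM) added for 5 min. AlphaScreen beads (10 ug/ml) added, 10 min RT; tyrosine-FITC cleavage read as signal loss.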
TDP1 cell noCPT = qHTS for Inhibitors of human tyrosyl-DNA phosphodiesterase 1 (TDP1): qHTS in cells in absence of CPT; Potency, µM (doses to about 46.2 µM), for inactives: at the top dose activity change, negative = growth inhibition, most hits filed as inhibitors; 420,000 compounds, 15% hits; DT40 Tdp1-/- hTDP1 cells, no CPT, ATP luminescence, 48 h; also: potency is read from the fitted curve at half-maximal effect; % is scaled to controls: 0 for no effect and ±100 for the full control effect; nearly all actives have a fitted effect of over 55% in size
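Seeded 400 DT40-hTDP1 cells/well (vehicle DMSO, no 20 nM CPT); pinned compounds; ≥48 hr at 37 °C; CellTiter-Glo luminescence as viability measure.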
miR-21 reporter = miR-21 reporter, rising signal; HeLa miR-21 FLuc reporter, luciferase, 48 h; Potency, µM (doses to about 38.3 µM), for inactives: at the highest dose reporter change, positive = more light; 340,000 tested, under 10 active; AID 2288; active = well fitted rising curve with a large enough effect; inconclusive = small, poorly fitted or top-dose-only effect; inactive = no such curve, though single readings can be large or run the other way;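 further: % of control where 0% means no effect; miR-21 action dims this reporter so a rising signal means less miR-21 action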
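HeLa cells endogenously expressing miR-21, stably carrying CMV-driven firefly luciferase with a downstream miR-21 binding site, 2000 cells/well. Titrations up to approximately 40 uM, 48 hours; luciferase luminescence read.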
DT40 TDP1 CPT = growth inhibition of DT40 Tdp1-/-;hTDP1 cells with camptothecin (screen for TDP1 inhibitors) | chicken DT40 Tdp1-/-;hTDP1 cells + 20 nM CPT, ATP luminescence, 48 h | Potency, µM (highest dose often 46.2 µM), inactives show at the highest dose activity change, negative = growth inhibition, actives largely listed as inhibitors | 420,000 compounds, 12% hits; also: potency is read from the fitted curve at half-maximal effect; % is scaled to controls: 0 for no effect and ±100 for the full control effect; nearly all actives have a fitted effect of over 55% in size
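Cell growth measured by CellTiter-Glo luminescence after a minimum 48 h, 37 C compound exposure with 20 nM CPT in Tdp1-knockout DT40 cells stably expressing hTDP1, seeded 400/well; qHTS titration format.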
uPA surface inh = blocks generation of uPA at the cell surface. cell surface uPA generation assay, qHTS. Potency, µM (highest dose often 38.3 µM), for the others: at the top dose activity change, negative = inhibition, hits mostly inhibitors. 330,000 compounds, 0.31% hits; active = well fitted inhibition curve with a large enough effect; inconclusive = small, poorly fitted or top-dose-only effect; inactive = no such curve, though single readings can be large or run the other way; tested in mouse RAW 264.7 cells; also: potency is read from the fitted curve at half-maximal effect; % is scaled to controls: 0 for no effect and ±100 for the full control effect; nearly all actives have a fitted effect of over 55% in size
Starred values were filed as active, the others as inactive; ? = inconclusive; · = no result; [ ] = dose if it differs, or a comment. Unless noted, calls follow the shape of the dose curve; as a rule, active = well fitted curve in the direction sought with a large enough effect; inconclusive = small, poorly fitted or top-dose-only effect, or another doubt; inactive = no such curve, though single readings can be large; an effect the other way counts as inactive or inconclusive.

1	O=C(O)CSc1nc2c(c(C(F)(F)F)n1)CCc1ccccc1-2
2	COc1ccc(OC)c(-c2nc(CN(C)C(C)c3ccncn3)c(C)o2)c1 (centres undefined)
3	O=C(O)c1ccc(-n2cccc2/C=N\NC(=O)c2cc3cc(Br)ccc3o2)cc1
4	Cc1cccc(N2CCN(S(=O)(=O)c3ccc4c(c3)NC(=O)CS4)CC2)c1C
5	Cc1cccc(N2CCN(S(=O)(=O)c3ccc4c(c3)C(C(C)C)C(=O)N4)CC2)c1C (centres undefined)
Screen / compound no.	1	2	3	4	5
TDP1 inh	4%	4%	1.1µM*	2%	6%
TDP1 cell noCPT	-9%	?	0%	?	12µM*
miR-21 reporter	-4%	-17%	-7%	12%	29%
DT40 TDP1 CPT	-6%	0%	13%	?	5.2µM*
uPA surface inh	-5%	-5%	0%	4%	·

Down the list, from the results shown:
Nos. 1–5 in TDP1 inh, in turn: 4%, 4%, 1.1µM*, 2%, 6%
Nos. 1–5 in miR-21 reporter, in turn: -4%, -17%, -7%, 12%, 29%
Nos. 1–5 in TDP1 cell noCPT, in turn: -9%, ?, 0%, ?, 12µM*

Other structures follow:
6	Cc1cccc(N2CCN(S(=O)(=O)c3ccc4c(c3)NC(=O)C(C)S4)CC2)c1C (centres undefined)
7	O=C(O)CCCCCCCCCCC1CCC(O)C1O (centres undefined)
8	COC(=O)c1cc(NC(=O)C(C)c2ccc(CC(C)C)cc2)ccc1O (centres undefined)
9	O=C(Cn1c(=O)n(Cc2ccco2)c(=O)c2ccccc21)Nc1cccc(F)c1
10	O=C(Cn1c2ccccc2c(=O)c2ccccc21)Nc1cccc(F)c1
Screen / compound no.	6	7	8	9	10
TDP1 inh	5%	·	-5%	-5%	1%
TDP1 cell noCPT	?	-8%	?	?	?
miR-21 reporter	17%	·	16%	4%	-7%
DT40 TDP1 CPT	21µM*	1%	21µM*	?	16µM*
uPA surface inh	-6%	-1%	-1%	·	-10%

11	CC(C)(CC(=O)O)CC(=O)N1CCN(c2nc3ccc(Cl)cc3s2)CC1
12	CC(C)(C)NC(=O)N1CCN(c2nc3ccc(Cl)cc3s2)CC1
13	CCCCC(=O)N1CCN(c2nc3ccc(Cl)cc3s2)CC1
14	O=C(CCN1CCN(c2ccccc2)CC1)c1ccc(Cl)cc1
15	COc1ccc(N2CCN(CCC(=O)c3ccc4ccccc4c3)CC2)cc1
Screen / compound no.	11	12	13	14	15
TDP1 inh	·	·	0%	·	·
TDP1 cell noCPT	11%	18µM*	?	6.5µM*	15µM*
miR-21 reporter	-12%	-23%	-21%	-6%	0%
DT40 TDP1 CPT	-16%	23µM*	16µM*	5.2µM*	18µM*
uPA surface inh	?	-1%	-4%	-8%	?

Single values from the list.
CC(C)(C)NC(=O)N1CCN(c2nc3ccc(Cl)cc3s2)CC1 | DT40 TDP1 CPT: 23µM*
CCCCC(=O)N1CCN(c2nc3ccc(Cl)cc3s2)CC1 | TDP1 inh: 0%
COc1ccc(N2CCN(CCC(=O)c3ccc4ccccc4c3)CC2)cc1 | DT40 TDP1 CPT: 18µM*

The listing continues.
16	COc1ccc(N2CCN(CC(=O)c3ccccc3)CC2)cc1
17	O=C1CC(=C(c2ccccc2)c2ccccc2)C(=O)N1CCCCN1CCN(c2ccccc2)CC1
18	O=C(CCN1CCN(c2ccc([N+](=O)[O-])cc2)CC1)c1ccc(Cl)cc1
19	O=C(NCc1ccc2c(c1)OCO2)c1nc(Cn2ccc([N+](=O)[O-])n2)no1
20	N=C(SC1CC(=O)N(c2ccc(F)cc2)C1=O)N1N=C(c2ccccc2)CC1c1ccccc1 (centres undefined)
Screen / compound no.	16	17	18	19	20
TDP1 inh	·	12%	·	4%	9%
TDP1 cell noCPT	?	9.2µM*	4.6µM*	2%	?
miR-21 reporter	-7%	25%	1%	7%	0%
DT40 TDP1 CPT	?	15µM*	3.7µM*	11%	16µM*
uPA surface inh	-1%	-12%	-4%	3%	3%

21	COc1ccc(-n2c(C)cc(/C=C3\SC(=S)N(Cc4ccco4)C3=O)c2C)cc1
22	CCN1CCN(c2c(/C=C3\SC(=S)N(Cc4ccco4)C3=O)c(C)c(C#N)c(=O)n2C)CC1
23	COC(=O)[C@H](CC(C)C)N1Cc2cc(OC)cc(OC)c2-c2ccccc2S1(=O)=O
24	O=C(Cc1cccc2ccccc12)Nc1cc(Cl)ccc1C(=O)O
25	COc1ccc(NC(=O)CSc2ccc3c(c2)OCCO3)cc1OC
26	COc1cc(NC(=O)CSc2ccc3c(c2)OCCO3)cc(OC)c1OC
27	O=C(CSc1ccc2c(c1)OCCO2)Nc1ccc2c(c1)OCO2
28	Brc1ccc(-c2nc3ncccn3c2NC2CCCCC2)o1
Screen / compound no.	21	22	23	24	25	26	27	28
TDP1 inh	8%	-5%	0%[56.1 µM]	4%	3%	5%	-1%	3%
TDP1 cell noCPT	?	15µM*	16µM*	?	?	21µM*	?	?
miR-21 reporter	-12%	-3%	·	2%	-3%	7%	-8%	13%
DT40 TDP1 CPT	?	?	?	-20%	21µM*	21µM*	?	16µM*
uPA surface inh	2%	-9%	-19%	-2%	5%	4%	-4%	12%

Bioassay records deposited in PubChem BioAssay by National Center for Advancing Translational Sciences (NCATS).
